Conditions: water

For “tertiobutylamino-3 (isopropyl-2 méthyl-5 cyclohexyloxy)-1 propanol-2, maléate [Exemple 2]”, the “Solubilités : soluble dans l'eau” value was 1%.
